From PMC6062497 (2018) come the findings set out here.

Values joined by “and” are separate entries in the source; they are usually repeats but may differ in a detail not shown here. Identical values can stand only once.

The assay deals with TRAIL-R2 (human (endogenous in SK-Mel-3 and …, UniProt O14763 56-440)).

B1: GpL-FLAG-conatumumab (antibody, V domains shown)
VH: QVQLQESGPGLVKPSQTLSLTCTVSGGSISSGDYFWSWIRQLPGKGLEWIGHIHNSGTTYYNPSLKSRVTISVDTSKKQFSLRLSSVTAADTAVYYCARDRGGDYYYGMDVWGQGTTVTVSS
VL: EIVLTQSPGTLSLSPGERATLSCRASQGISRSYLAWYQQKPGQAPSLLIYGASSRATGIPDRFSGSGSGTDFTLTISRLEPEDFAVYYCQQFGSSPWTFGQGTKVEIK
One may read the Kd as the free concentration of one partner at which half of the binding sites on the other are occupied at equilibrium, for simple one-to-one binding. With B1, the Kd is 5.53 nM and 4.86 nM.
